These results are taken from US12419858B2, “Salt of terphenyl compound” (Taiho Pharmaceutical Co., Ltd., priority 2019, dated 2025).

The series in a line: Pharmacokinetic (PK) studies in rats. As for the experimental part:
Each drug was administered to the animal at a dose of 32 mg/5 mL/kg.

On to `CC(C)(O)Cc1ccc(-c2ccc(C(=O)N3CC[C@H](N)C3)cc2-c2ccc(C#N)c(F)c2)c(F)c1.O=C(O)c1ccccc1` [benzoic acid salt of Compound A, benzoic acid salt of 4-[5-[(3S)-3-aminopyrrolidine-1-carbonyl]-2-[2-fluoro-4-(2-hydroxy-2-methyl-propyl)phenyl]phenyl]-2-fluoro-benzonitrile], for which, for the setting “rats, dose of 32 mg/5 mL/kg”, the AUC (in general, concentration integrated over time) worked out at 16.13 µM·h.

The compound `CC(C)(O)Cc1ccc(-c2ccc(C(=O)N3CC[C@H](N)C3)cc2-c2ccc(C#N)c(F)c2)c(F)c1` [free form of Compound A, 4-[5-[(3S)-3-aminopyrrolidine-1-carbonyl]-2-[2-fluoro-4-(2-hydroxy-2-methyl-propyl)phenyl]phenyl]-2-fluoro-benzonitrile] returned an AUC (rat, in vivo, 32 mg/kg) of 16 µM·h.
